Tests used:
[1] = system: PR407: SP(HSA)-PTEN-L-cathepsin B*-HSA-6xHis (secreted form)
[2] = system: PR408: SP(HSA)-PTEN-L-cathepsinB**-HSA-6xHis (secreted form)

Substance: active CATSB (Cathepsin B; BioVision #7580-5)
- in vitro cleavage of the fusion, share released as PTEN-L-like fragment [1]: CATSB cleaved PR407 (SEQ ID NO:131; cDNA SEQ ID NO:159) and PR408 (SEQ ID NO:132; cDNA SEQ ID NO:160) to release a PTEN-L-like fragment at similar amounts (about 20% of total)
- in vitro cleavage of the fusion, share released as PTEN-L-like fragment [2]: CATSB cleaved PR407 (SEQ ID NO:131; cDNA SEQ ID NO:159) and PR408 (SEQ ID NO:132; cDNA SEQ ID NO:160) to release a PTEN-L-like fragment at similar amounts (about 20% of total)

— patent US20210079423
